Results as given in patent US7192924B2, “Corticotropin releasing factor 2 receptor agonists” (priority 2002, dated 2007).

Assays:
CRF2R = biological target: T1, CRF2R (Homo sapiens, UniProt Q13324); experiment: CRF2R agonist activity (EC50, Emax), called comparative CRF binding; format: cell-based
T1 sequence (Q13324 1-411): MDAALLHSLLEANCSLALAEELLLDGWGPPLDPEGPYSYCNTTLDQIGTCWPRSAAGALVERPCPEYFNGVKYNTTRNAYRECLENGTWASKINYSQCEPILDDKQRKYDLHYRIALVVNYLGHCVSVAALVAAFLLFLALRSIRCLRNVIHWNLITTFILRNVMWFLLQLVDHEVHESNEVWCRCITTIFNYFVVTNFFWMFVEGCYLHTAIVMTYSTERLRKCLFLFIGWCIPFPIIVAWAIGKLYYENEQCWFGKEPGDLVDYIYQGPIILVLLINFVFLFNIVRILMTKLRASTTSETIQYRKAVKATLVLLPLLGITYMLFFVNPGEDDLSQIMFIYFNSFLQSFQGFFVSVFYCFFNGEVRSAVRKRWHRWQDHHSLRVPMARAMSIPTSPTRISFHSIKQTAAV
Method in brief: (§1)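 Single-subtype CRFR cells, peptide vs vehicle, cAMP via CRE-reporter or lysate assay; background from other CRFR type subtracted if present.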

CRF1R = biological target: T2, CRF1R (Homo sapiens, UniProt P34998); experiment: CRF1R agonist activity (EC50, Emax), called comparative CRF binding; format: cell-based
T2 sequence (P34998 24-415): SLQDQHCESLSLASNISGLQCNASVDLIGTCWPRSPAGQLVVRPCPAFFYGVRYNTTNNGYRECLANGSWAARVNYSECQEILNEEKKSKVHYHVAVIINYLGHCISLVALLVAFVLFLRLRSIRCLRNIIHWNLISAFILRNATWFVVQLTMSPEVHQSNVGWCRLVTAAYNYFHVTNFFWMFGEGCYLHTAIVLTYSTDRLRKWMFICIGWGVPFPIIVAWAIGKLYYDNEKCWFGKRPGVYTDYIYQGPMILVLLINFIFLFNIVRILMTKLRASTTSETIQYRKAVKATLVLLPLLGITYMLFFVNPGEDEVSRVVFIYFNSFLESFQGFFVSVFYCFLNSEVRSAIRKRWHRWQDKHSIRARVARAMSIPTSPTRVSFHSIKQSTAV
Method in brief: as §1

Compound | EC50 (CRF2R) | EC50 (CRF1R) | EC50 (CRF2R; read-out: CRF2R EC50) | EC50 (CRF1R; read-out: CRF1R EC50)
CC[C@H](C)[C@H](NC(=O)[C@@H](NC(=O)[C@H](CC(=O)O)NC(=O)[C@H](CC(C)C)NC(=O)[C@H](CC(C)C)NC(=O)[C@H](CC(C)C)NC(=O)[C@H](CCCNC(=N)N)NC(=O)[C@H](CC(N)=O)NC(=O)[C@H](CC(N)=O)NC(=O)[C@H](C)NC(=O)[C@H](C)NC(=O)[C@H](CCC(N)=O)NC(=O)[C@H](CCC(N)=O)NC(=O)[C@H](CCCCN)NC(=O)[C@H](CCC(=O)O)NC(=O)[C@H](CCCCN)NC(=O)[C@H](CCC(=O)O)NC(=O)[C@H](CCC(N)=O)NC(=O)[C@H](CCCCN)NC(=O)[C@H](CCC(=O)O)NC(=O)[C@@H](NC(=O)[C@H](CCC(=O)O)NC(=O)[C@@H](NC(=O)[C@H](CCSC)NC(=O)[C@H](CCCCN)NC(=O)[C@H](CCCNC(=N)N)NC(=O)[C@H](CC(C)C)NC(=O)[C@H](CC(C)C)NC(=O)CNC(=O)[C@@H](NC(=O)[C@@H]1CCCN1C(=O)[C@@H](NC(=O)[C@H](CC(=O)O)NC(=O)[C@@H](NC(=O)[C@H](CO)NC(=O)[C@@H](NC(=O)[C@@H]1CCCN1C(=O)[C@@H]1CCCN1C(=O)CNC(=O)[C@@H]1CCC(=O)N1)[C@@H](C)CC)[C@@H](C)CC)C(C)C)[C@@H](C)CC)[C@@H](C)CC)[C@@H](C)CC)[C@@H](C)O)C(N)=O [compound 254] | ≥ 100 nM | 708 nM |  | 
CC[C@H](C)[C@H](NC(=O)[C@@H](NC(=O)[C@H](CC(=O)O)NC(=O)[C@H](CC(C)C)NC(=O)[C@H](CC(C)C)NC(=O)[C@H](CC(C)C)NC(=O)[C@H](CCCNC(=N)N)NC(=O)[C@H](CC(N)=O)NC(=O)[C@H](CC(N)=O)NC(=O)[C@H](C)NC(=O)[C@H](C)NC(=O)[C@H](CCC(N)=O)NC(=O)[C@H](CCC(N)=O)NC(=O)[C@H](CCCCN)NC(=O)[C@H](CCC(=O)O)NC(=O)[C@H](CCCCN)NC(=O)[C@H](CCC(=O)O)NC(=O)[C@H](CCC(N)=O)NC(=O)[C@H](CCCCN)NC(=O)[C@H](CCC(=O)O)NC(=O)[C@@H](NC(=O)[C@H](CCC(=O)O)NC(=O)[C@@H](NC(=O)[C@H](CCSC)NC(=O)[C@H](CCCCN)NC(=O)[C@H](CCCNC(=N)N)NC(=O)[C@H](CC(C)C)NC(=O)[C@H](CC(C)C)NC(=O)[C@H](CC(C)C)NC(=O)[C@H](CC(C)C)NC(=O)[C@@H]1CCCN1C(=O)[C@H](CC(C)C)NC(=O)[C@H](CC(=O)O)NC(=O)[C@@H](NC(=O)[C@H](CO)NC(=O)[C@@H](NC(=O)[C@@H]1CCCN1C(=O)[C@@H]1CCCN1C(=O)CNC(=O)[C@@H]1CCC(=O)N1)[C@@H](C)CC)[C@@H](C)CC)[C@@H](C)CC)[C@@H](C)CC)[C@@H](C)O)C(N)=O [compound 188] |  |  | 14.6 nM | 162 nM
CC[C@H](C)[C@H](NC(=O)[C@@H](NC(=O)[C@H](CC(=O)O)NC(=O)[C@H](CC(C)C)NC(=O)[C@H](CC(C)C)NC(=O)[C@H](CC(C)C)NC(=O)[C@H](CCCNC(=N)N)NC(=O)[C@H](CC(N)=O)NC(=O)[C@H](CC(N)=O)NC(=O)[C@H](C)NC(=O)[C@H](C)NC(=O)[C@H](CCC(N)=O)NC(=O)[C@H](CCC(N)=O)NC(=O)[C@H](CCCCN)NC(=O)[C@H](CCC(=O)O)NC(=O)[C@H](CCCCN)NC(=O)[C@H](CCC(=O)O)NC(=O)[C@H](CCC(N)=O)NC(=O)[C@H](CCCCN)NC(=O)[C@H](CCC(=O)O)NC(=O)[C@@H](NC(=O)[C@H](CCC(=O)O)NC(=O)[C@@H](NC(=O)[C@H](CCSC)NC(=O)[C@H](CCCCN)NC(=O)[C@H](CCCNC(=N)N)NC(=O)[C@H](CC(C)C)NC(=O)[C@H](CC(C)C)NC(=O)[C@H](Cc1ccc(O)cc1)NC(=O)[C@H](C)NC(=O)[C@@H]1CCCN1C(=O)[C@H](CC(C)C)NC(=O)[C@H](CC(=O)O)NC(=O)[C@@H](NC(=O)[C@H](CO)NC(=O)[C@@H](NC(=O)[C@@H]1CCCN1C(=O)[C@@H]1CCCN1C(=O)CNC(=O)[C@@H]1CCC(=O)N1)[C@@H](C)CC)[C@@H](C)CC)[C@@H](C)CC)[C@@H](C)CC)[C@@H](C)O)C(N)=O [compound 32] |  |  | 20.2 nM | 606 nM

Read-outs that look alike come from different tables or passages of the source.
